{"source": "paper PMC6825215", "about": "“An anionic, endosome-escaping polymer to potentiate intracellular delivery of cationic peptides, biomacromolecules, and nanoparticles” (Nature Communications, 2019)", "system": "human coronary artery vascular smooth muscle cells (HCAVSMCs)", "experiment": "Flow cytometric uptake and retention of fluorescently labeled peptide", "settings": "5 µM Alexa-488 labeled peptide, mass ratios 3:1 to 1:20 peptide:polymer, 30 min, flow cytometry", "description": "All samples were run in triplicate.\nCells were then treated with each formulation for 30 min.\nCell culture medium containing the polymer treatment was then aspirated, and cells were subsequently treated with fluorescent peptide or vivo-morpholino alone for 30 min.\nHCAVSMCs were seeded and treated for 30 min as noted above."}
{"smiles": "CC[C@H](C)[C@H](NC(=O)[C@H](CCCCN)NC(=O)CNC(=O)[C@H](CC(C)C)NC(=O)[C@H](CC(C)C)NC(=O)[C@H](Cc1ccc(O)cc1)NC(=O)CNC(=O)[C@H](C)NC(=O)[C@H](CO)NC(=O)[C@H](CC(N)=O)NC(=O)[C@H](CC(C)C)NC(=O)[C@@H](NC(=O)[C@H](Cc1c[nH]c2ccccc12)NC(=O)CN)[C@@H](C)O)C(=O)N[C@@H](CC(N)=O)C(=O)N[C@@H](CC(C)C)C(=O)N[C@@H](CCCCN)C(=O)N[C@@H](C)C(=O)N[C@@H](CC(C)C)C(=O)N[C@@H](C)C(=O)N[C@@H](C)C(=O)N[C@@H](CC(C)C)C(=O)N[C@@H](C)C(=O)N[C@@H](CCCCN)C(=O)N[C@@H](CCCCN)C(=O)N[C@H](C(=O)N[C@@H](CC(C)C)C(=O)N[C@@H](CCCCN)C(=O)N[C@@H](C)C(=O)N[C@@H](CC(C)C)C(=O)N[C@@H](C)C(=O)N[C@@H](CCCNC(=N)N)C(=O)N[C@@H](CCC(N)=O)C(=O)N[C@@H](CC(C)C)C(=O)NCC(=O)N[C@H](C(=O)N[C@@H](C)C(=O)N[C@@H](C)C(=O)O)C(C)C)[C@@H](C)CC", "note": "[Transportan-MK2i]", "values": [{"measurement": "effect of co-delivery with PPAA (pre-complexed NPs) on peptide uptake", "result": "did not display significant PPAA-mediated enhancement of uptake with co-delivery"}]}
